Residues, ends and D or L forms follow the SMILES beside them. *: point of attachment. Cbz = O=C(OCc1ccccc1)*; CH2F = FC*
Each compound was assayed on HeLa cells (assay: MTS cell viability assay). Conditions: HeLa cells treated with eMTDΔ4 in the presence of the inhibitor (Fig. 1d-f, Extended Data Fig. 1b).

Row | SMILES | inhibition of eMTD∆4-induced cell death by cell death inhibitor
1 | COC(=O)C[C@H](NC(=O)[C@H](C)NC(=O)[C@@H](NC(=O)OCc1ccccc1)C(C)C)C(=O)CF [zVAD-fmk, reference compound] (Cbz-Val-Ala-Asp(OMe)-CH2F) | not inhibited
2 | CN1C(=O)C(Cc2c[nH]c3ccccc23)NC1=S (stereo not shown) [Necrostatin-1, reference compound] | not inhibited
3 | CO/C1=C\C(C)=C\[C@@H](C)[C@@H](O)[C@@H](C)C/C(C)=C/C=C/[C@H](OC)[C@@H]([C@@H](C)[C@@H](O)[C@H](C)[C@@]2(O)C[C@@H](O)[C@H](C)[C@@H](C(C)C)O2)OC1=O [Bafilomycin A1, reference compound] | not inhibited
4 | CC(C)S(=O)(=O)c1ccc2nccc(Nc3ccc4scnc4c3)c2c1 [GSK 872, reference compound] | not inhibited

From publication PMC6614423, “Noxa mitochondrial targeting domain induces necrosis via VDAC2 and mitochondrial catastrophe” (Cell Death & Disease, 2019)
